Measured values from patent US9217022B2, “GLP-1 receptor agonist compounds having stabilized regions” (AstraZeneca Pharmaceuticals LP, priority 2010, dated 2015).

Amino acid sequences for entries named in this document (tags omitted). Residues count along the entry.
UniProt P43220, 24-463, species assumed: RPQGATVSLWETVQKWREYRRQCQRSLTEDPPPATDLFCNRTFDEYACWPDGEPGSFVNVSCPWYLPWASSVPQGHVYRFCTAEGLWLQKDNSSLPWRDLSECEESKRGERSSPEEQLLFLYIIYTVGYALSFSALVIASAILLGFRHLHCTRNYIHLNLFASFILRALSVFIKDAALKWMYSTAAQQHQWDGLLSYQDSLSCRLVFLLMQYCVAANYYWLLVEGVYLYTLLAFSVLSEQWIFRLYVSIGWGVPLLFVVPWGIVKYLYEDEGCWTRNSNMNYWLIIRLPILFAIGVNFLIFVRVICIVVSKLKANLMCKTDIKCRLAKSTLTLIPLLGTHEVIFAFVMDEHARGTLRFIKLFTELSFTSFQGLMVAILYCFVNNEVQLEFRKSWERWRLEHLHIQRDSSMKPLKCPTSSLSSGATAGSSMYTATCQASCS

Molecular target: GLP-1 receptor (Homo sapiens, UniProt P43220)
Experiment: GLP-1 adenylate cyclase assay (functional assay, HTRF cell-based cAMP)
Procedure: GLP-1 adenylate cyclase assay (Functional Assay). The GLP-1 receptor mediated adenylate cyclase activation can be measured using, for example, an HTRF (Homogeneous Time-Resolved Fluorescence) cell-based cAMP assay kit (CisBio) as known in the art.
In vitro assay of the biological activity of benzamide-containing compounds was conducted with the GLP-1 cyclase assay as described herein.
In vitro assay of the biological activity of constrained alkene compounds was conducted with the GLP-1 cyclase assay as described herein.

[1] = constrained alkene compounds, Table 4, read-out: Cyclase GLP-1 EC50 (nm)
[2] = benzamide-containing compounds, Table 3, read-out: Cyclase GLP-1 EC50 (nm)

CC[C@H](C)[C@H](NC(=O)[C@H](Cc1ccccc1)NC(=O)[C@H](CC(C)C)NC(=O)[C@H](CCCNC(=N)N)NC(=O)[C@@H](NC(=O)[C@H](C)NC(=O)[C@H](CCC(=O)O)NC(=O)[C@H](CCC(=O)O)NC(=O)[C@H](CCC(=O)O)NC(=O)c1ccc(NC(=O)c2ccc(NC(=O)[C@H](CC(=O)O)NC(=O)[C@H](CO)NC(=O)[C@@H](NC(=O)[C@H](Cc3ccccc3)NC(=O)[C@@H](NC(=O)CNC(=O)[C@@H]3CCCN3C(=O)[C@@H](C)NC(=O)[C@@H](N)Cc3c[nH]cn3)[C@@H](C)O)[C@@H](C)O)c(OCC(C)C)c2)c(OCC(C)C)c1)C(C)C)C(=O)N[C@@H](CCC(=O)O)C(=O)N[C@@H](Cc1ccccc1)C(=O)N[C@@H](CC(C)C)C(=O)N[C@@H](CCCCN)C(=O)N[C@@H](CC(N)=O)C(N)=O [Cmpd 14]
EC50: 5.5 nM

CC[C@H](C)[C@H](NC(=O)[C@H](Cc1ccccc1)NC(=O)[C@H](CC(C)C)NC(=O)[C@H](CCCNC(=N)N)NC(=O)[C@@H](NC(=O)[C@H](C)NC(=O)[C@H](CCC(=O)O)NC(=O)[C@H](CCC(=O)O)NC(=O)[C@H](CCC(=O)O)NC(=O)[C@H](CC(C)C)NC(=O)[C@H](CCC(N)=O)NC(=O)[C@H](CCCCN)NC(=O)[C@H](CO)NC(=O)[C@H](CC(C)C)NC(=O)[C@H](CC(=O)O)NC(=O)[C@H](CO)NC(=O)[C@@H](NC(=O)[C@H](Cc1ccccc1)NC(=O)[C@@H](NC(=O)CNC(=O)[C@@H]1CCCN1C(=O)[C@@H](C)NC(=O)[C@@H](N)Cc1c[nH]cn1)[C@@H](C)O)[C@@H](C)O)C(C)C)C(=O)N[C@@H]1CC=CC[C@@H](C(N)=O)NC(=O)[C@H](CCCCN)NC(=O)[C@H](CC(C)C)NC(=O)[C@H](Cc2ccccc2)NC1=O [Cmpd 24]
EC50 [1]: 127 nM

CC[C@H](C)[C@H](NC(=O)[C@H](Cc1ccccc1)NC(=O)[C@H](CC(C)C)NC(=O)[C@H](CCCNC(=N)N)NC(=O)[C@@H](NC(=O)[C@H](C)NC(=O)[C@H](CCC(=O)O)NC(=O)[C@H](CCC(=O)O)NC(=O)[C@H](CCC(=O)O)NC(=O)[C@H](CC(C)C)NC(=O)[C@H](CCC(N)=O)NC(=O)[C@H](CCCCN)NC(=O)[C@H](CO)NC(=O)[C@H](CC(C)C)NC(=O)[C@H](CC(=O)O)NC(=O)[C@H](CO)NC(=O)[C@@H](NC(=O)[C@H](Cc1ccccc1)NC(=O)[C@@H](NC(=O)CNC(=O)[C@@H]1CCCN1C(=O)[C@@H](C)NC(=O)[C@@H](N)Cc1c[nH]cn1)[C@@H](C)O)[C@@H](C)O)C(C)C)C(=O)N[C@H]1CC=CC[C@@H](CC(N)=O)NC(=O)[C@H](CCCCN)NC(=O)[C@H](CC(C)C)NC(=O)[C@H](Cc2ccccc2)NC(=O)C1 [Cmpd 27]
EC50: 0.8 nM
activity in GLP-1 cyclase assay (in words) (in vitro): subnanomolar activity

CC[C@H](C)[C@H](NC(=O)[C@H](Cc1ccccc1)NC(=O)[C@H](CC(C)C)NC(=O)[C@H](CCCNC(=N)N)NC(=O)[C@@H](NC(=O)[C@H](C)NC(=O)[C@H](CCC(=O)O)NC(=O)[C@H](CCC(=O)O)NC(=O)[C@H](CCC(=O)O)NC(=O)[C@H](CC(C)C)NC(=O)[C@H](CCC(N)=O)NC(=O)[C@H](CCCCN)NC(=O)[C@H](CO)NC(=O)[C@H](CC(C)C)NC(=O)[C@H](CC(=O)O)NC(=O)[C@H](CO)NC(=O)[C@@H](NC(=O)[C@H](Cc1ccccc1)NC(=O)[C@@H](NC(=O)CNC(=O)[C@@H]1CCCN1C(=O)[C@@H](C)NC(=O)[C@@H](N)Cc1c[nH]cn1)[C@@H](C)O)[C@@H](C)O)C(C)C)C(=O)NC1CC=CCC(C(N)=O)NC(=O)[C@H](CCCCN)NC(=O)[C@H](CC(C)C)NC(=O)[C@H](Cc2ccccc2)NC1=O (stereo partly shown) [Cmpd 25]
EC50 [1]: 131 nM

CC[C@H](C)[C@H](NC(=O)[C@H](Cc1ccccc1)NC(=O)[C@H](CC(C)C)NC(=O)[C@H](CCCNC(=N)N)NC(=O)[C@@H](NC(=O)[C@H](C)NC(=O)[C@H](CCC(=O)O)NC(=O)[C@H](CCC(=O)O)NC(=O)[C@H](CCC(=O)O)NC(=O)c1ccc(NC(=O)c2ccc(NC(=O)c3ccc(NC(=O)[C@@H](NC(=O)CNC(=O)[C@@H]4CCCN4C(=O)[C@@H](C)NC(=O)[C@@H](N)Cc4c[nH]cn4)[C@@H](C)O)c(OCc4ccccc4)c3)c(OCC(C)C)c2)c(OCC(C)C)c1)C(C)C)C(=O)N[C@@H](CCC(=O)O)C(=O)N[C@@H](Cc1ccccc1)C(=O)N[C@@H](CC(C)C)C(=O)N[C@@H](CCCCN)C(=O)N[C@@H](CC(N)=O)C(N)=O [Cmpd 15]
EC50: 277 nM

CC(C)C[C@H](NC(=O)[C@H](CCCNC(=N)N)NC(=O)[C@@H](NC(=O)[C@H](C)NC(=O)[C@H](C)NC(=O)[C@H](C)NC(=O)[C@H](CC(=O)O)NC(=O)[C@H](CO)NC(=O)[C@@H](NC(=O)[C@H](Cc1ccccc1)NC(=O)[C@@H](NC(=O)CNC(=O)[C@@H]1CCCN1C(=O)[C@@H](C)NC(=O)[C@@H](N)Cc1c[nH]cn1)[C@@H](C)O)[C@@H](C)O)C(C)C)C(=O)Nc1ccc(C(=O)Nc2ccc(C(N)=O)cc2OCc2ccccc2)cc1OCc1ccccc1 [Cmpd 16]
EC50 [2]: 136 nM

CC[C@H](C)[C@H](NC(=O)[C@H](Cc1ccccc1)NC(=O)[C@H](CC(C)C)NC(=O)[C@H](CCCNC(=N)N)NC(=O)[C@@H](NC(=O)[C@H](C)NC(=O)[C@H](CCC(=O)O)NC(=O)[C@H](CCC(=O)O)NC(=O)[C@H](CCC(=O)O)NC(=O)[C@H](CC(C)C)NC(=O)[C@H](CCC(N)=O)NC(=O)[C@H](CCCCN)NC(=O)[C@H](CO)NC(=O)[C@H](CC(C)C)NC(=O)[C@H](CC(=O)O)NC(=O)[C@H](CO)NC(=O)[C@@H](NC(=O)[C@H](Cc1ccccc1)NC(=O)[C@@H](NC(=O)CNC(=O)[C@@H]1CCCN1C(=O)[C@@H](C)NC(=O)[C@@H](N)Cc1c[nH]cn1)[C@@H](C)O)[C@@H](C)O)C(C)C)C(=O)N[C@H]1CC=CC[C@@H](CC(N)=O)NC(=O)[C@H](CCCCN)NC(=O)[C@H](CC(C)C)NC(=O)[C@H](Cc2ccccc2)NC1=O [Cmpd 26]
EC50 [1]: 35 nM

CC(C)C[C@H](NC(=O)[C@H](CCC(N)=O)NC(=O)[C@H](CCCCN)NC(=O)[C@H](CO)NC(=O)[C@H](CC(C)C)NC(=O)[C@H](CC(=O)O)NC(=O)[C@H](CO)NC(=O)[C@@H](NC(=O)[C@H](Cc1ccccc1)NC(=O)[C@@H](NC(=O)CNC(=O)[C@@H]1CCCN1C(=O)[C@@H](C)NC(=O)[C@@H](N)Cc1c[nH]cn1)[C@@H](C)O)[C@@H](C)O)C(=O)N[C@@H](CCC(=O)O)C(=O)N[C@@H](CCC(=O)O)C(=O)N[C@@H](CCC(=O)O)C(=O)N[C@@H](C)C(=O)Nc1ccc(C(=O)Nc2ccc(C(=O)Nc3ccc(C(N)=O)cc3OCc3ccccc3)cc2OCc2ccccc2)cc1OC(C)C [Cmpd 17]
EC50: 236 nM

CC(C)C[C@H](NC(=O)[C@H](CCCNC(=N)N)NC(=O)[C@H](C)NC(=O)[C@H](C)NC(=O)[C@H](C)NC(=O)[C@H](CC(=O)O)NC(=O)[C@H](CO)NC(=O)[C@@H](NC(=O)[C@H](Cc1ccccc1)NC(=O)[C@@H](NC(=O)CNC(=O)[C@@H]1CCCN1C(=O)[C@@H](C)NC(=O)[C@@H](N)Cc1c[nH]cn1)[C@@H](C)O)[C@@H](C)O)C(=O)Nc1ccc(C(=O)Nc2ccc(C(N)=O)cc2OCc2ccccc2)cc1OCc1ccccc1 [Cmpd 18]
EC50 [2]: 21 nM

CC[C@H](C)[C@H](NC(=O)[C@H](Cc1ccccc1)NC(=O)[C@H](CC(C)C)NC(=O)[C@H](CCCNC(=N)N)NC(=O)[C@@H](NC(=O)[C@H](C)NC(=O)[C@H](CCC(=O)O)NC(=O)[C@H](CCC(=O)O)NC(=O)[C@H](CCC(=O)O)NC(=O)[C@H](CC(C)C)NC(=O)[C@H](CCC(N)=O)NC(=O)[C@H](CCCCN)NC(=O)[C@H](CO)NC(=O)[C@H](CC(C)C)NC(=O)[C@H](CC(=O)O)NC(=O)[C@H](CO)NC(=O)[C@@H](NC(=O)[C@H](Cc1ccccc1)NC(=O)[C@@H](NC(=O)CNC(=O)[C@@H]1CCCN1C(=O)[C@@H](C)NC(=O)[C@@H](N)Cc1c[nH]cn1)[C@@H](C)O)[C@@H](C)O)C(C)C)C(=O)N[C@H]1C/C=C/C[C@H](C(N)=O)NC(=O)[C@H](CCCCN)NC(=O)[C@H](CC(C)C)NC(=O)[C@H](Cc2ccccc2)NC1=O [Cmpd 23]
EC50 [1]: 133 nM

CC[C@H](C)[C@H](NC(=O)[C@H](Cc1ccccc1)NC(=O)[C@H](CC(C)C)NC(=O)[C@H](CCCNC(=N)N)NC(=O)[C@@H](NC(=O)[C@H](C)NC(=O)[C@H](CCC(=O)O)NC(=O)[C@H](CCC(=O)O)NC(=O)[C@H](CCC(=O)O)NC(=O)[C@H](CC(C)C)NC(=O)[C@H](CCC(N)=O)NC(=O)[C@H](CCCCN)NC(=O)[C@H](CO)NC(=O)[C@H](CC(C)C)NC(=O)[C@H](CC(=O)O)NC(=O)[C@H](CO)NC(=O)[C@@H](NC(=O)[C@H](Cc1ccccc1)NC(=O)[C@@H](NC(=O)CNC(=O)[C@@H]1CCCN1C(=O)[C@@H](C)NC(=O)[C@@H](N)Cc1c[nH]cn1)[C@@H](C)O)[C@@H](C)O)C(C)C)C(=O)N[C@H]1C/C=C\CCN([C@@H](CC(N)=O)C(N)=O)C(=O)[C@H](CCCCN)NC(=O)[C@H](CC(C)C)NC(=O)[C@H](Cc2ccccc2)NC(=O)C1 [Cmpd 35]
EC50 [1]: 35 nM

CC(C)C[C@H](NC(=O)c1ccc(NC(=O)c2ccc(NC(=O)[C@H](CC(C)C)NC(=O)[C@H](CCCNC(=N)N)NC(=O)[C@@H](NC(=O)[C@H](C)NC(=O)[C@H](CCC(=O)O)NC(=O)[C@H](CCC(=O)O)NC(=O)[C@H](CCC(=O)O)NC(=O)[C@H](CC(C)C)NC(=O)[C@H](CCC(N)=O)NC(=O)[C@H](CCCCN)NC(=O)[C@H](CO)NC(=O)[C@H](CC(C)C)NC(=O)[C@H](CC(=O)O)NC(=O)[C@H](CO)NC(=O)[C@@H](NC(=O)[C@H](Cc3ccccc3)NC(=O)[C@@H](NC(=O)CNC(=O)[C@@H]3CCCN3C(=O)[C@@H](C)NC(=O)[C@@H](N)Cc3c[nH]cn3)[C@@H](C)O)[C@@H](C)O)C(C)C)c(OCc3ccccc3)c2)c(OCc2ccccc2)c1)C(=O)N[C@@H](CCCCN)C(=O)N[C@@H](CC(N)=O)C(N)=O [Cmpd 13]
EC50: 1.7 nM

Where two headings read alike, the source gives them in different places.
